Reference: publication PMC11535040, “Requirement of Nek2a and cyclin A2 for Wapl-dependent removal of cohesin from prophase chromatin” (The EMBO Journal, 2024)
Residue numbers refer to the chain shown, from its start.

Experiments:
Test in all cases: pull-down; Flag-Pds5b variants affinity-purified from Nek2a- and cyclin A2-free prometaphase cells, incubated on the beads with recombinant Nek2a and/or Cdk1/2-cyclin A2 and ATP, washed, then incubated with recombinant Wapl (2 µl) and sororin (0.3 µg) in 15 µl cleavage buffer without ATP, 20 min at 37 °C; immunoblotting
Conditions in all cases: both partners purified
[1] = target: T1, Flag-tagged Pds5b-Ser1161,1166Ala (2A), untreated or exposed to Cdk1/2-cyclin A2 (human, UniProt Q9NTI5 1-1447, Ser1161,1166Ala | Ser1161,1166Ala)
T1 construct: Pds5b, human; 2A is resistant to Cdk1/2-cyclin A2; also called Pds5b-2A
T1 sequence (looked up): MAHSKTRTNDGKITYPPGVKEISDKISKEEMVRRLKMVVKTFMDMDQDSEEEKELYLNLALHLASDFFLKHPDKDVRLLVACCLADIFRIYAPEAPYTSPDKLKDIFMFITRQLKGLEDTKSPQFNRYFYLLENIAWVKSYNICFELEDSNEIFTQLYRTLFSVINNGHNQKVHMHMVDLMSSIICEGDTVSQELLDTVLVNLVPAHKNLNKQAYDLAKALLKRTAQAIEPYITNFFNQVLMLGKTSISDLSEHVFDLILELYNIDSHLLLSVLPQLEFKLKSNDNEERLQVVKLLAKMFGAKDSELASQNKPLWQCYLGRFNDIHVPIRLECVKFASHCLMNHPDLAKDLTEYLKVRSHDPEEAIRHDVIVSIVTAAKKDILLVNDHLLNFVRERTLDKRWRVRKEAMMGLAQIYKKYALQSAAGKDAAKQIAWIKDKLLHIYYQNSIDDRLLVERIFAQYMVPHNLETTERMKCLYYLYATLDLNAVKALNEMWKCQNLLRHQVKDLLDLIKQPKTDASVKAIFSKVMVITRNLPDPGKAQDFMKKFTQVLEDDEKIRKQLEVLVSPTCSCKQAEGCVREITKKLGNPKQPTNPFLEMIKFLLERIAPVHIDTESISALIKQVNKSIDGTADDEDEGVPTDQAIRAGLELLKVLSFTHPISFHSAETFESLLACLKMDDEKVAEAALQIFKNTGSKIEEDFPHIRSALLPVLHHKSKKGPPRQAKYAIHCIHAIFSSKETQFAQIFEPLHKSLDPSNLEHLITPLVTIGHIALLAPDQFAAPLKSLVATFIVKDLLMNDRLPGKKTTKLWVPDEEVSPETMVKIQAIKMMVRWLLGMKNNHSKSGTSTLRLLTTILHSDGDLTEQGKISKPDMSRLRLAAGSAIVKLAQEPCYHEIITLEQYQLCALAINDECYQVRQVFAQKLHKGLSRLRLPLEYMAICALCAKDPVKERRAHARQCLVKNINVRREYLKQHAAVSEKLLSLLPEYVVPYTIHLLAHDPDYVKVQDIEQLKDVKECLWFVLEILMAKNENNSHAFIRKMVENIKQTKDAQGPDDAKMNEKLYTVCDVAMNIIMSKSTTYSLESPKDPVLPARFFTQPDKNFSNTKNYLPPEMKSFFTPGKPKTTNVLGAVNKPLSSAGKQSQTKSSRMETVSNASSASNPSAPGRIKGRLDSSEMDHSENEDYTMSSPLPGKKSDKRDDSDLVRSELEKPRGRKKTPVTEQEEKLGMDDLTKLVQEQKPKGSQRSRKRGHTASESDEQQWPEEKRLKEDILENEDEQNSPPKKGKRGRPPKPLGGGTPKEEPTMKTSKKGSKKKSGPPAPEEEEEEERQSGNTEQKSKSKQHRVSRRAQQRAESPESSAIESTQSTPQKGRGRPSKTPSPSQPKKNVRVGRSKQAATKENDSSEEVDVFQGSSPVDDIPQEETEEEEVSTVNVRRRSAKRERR

[2] = target: T2, Flag-tagged Pds5b-Ser1177,1182,1209Ala (3A), untreated or exposed to Nek2a (human, UniProt Q9NTI5 1-1447, Ser1177,1182,1209Ala | Ser1177,1182,1209Ala | Ser1177,1182,1209Ala)
T2 construct: Pds5b, human; 3A is resistant to Nek2a; also called Pds5b-3A
T2 sequence (looked up): T1 sequence (looked up) with A1161S, A1166S, S1177A, S1182A, S1209A

[3] = target: T3, Flag-tagged Pds5b-Ser1161,1166,1177,1182,1209Ala (5A), untreated or exposed to Nek2a and Cdk1/2-cyclin A2 (human, UniProt Q9NTI5 1-1447, Ser1161,1166,1177,1182,1209Ala | Ser1161,1166,1177,1182,1209Ala | …)
T3 construct: Pds5b, human; 5A is resistant to both kinases; also called Pds5b-5A
T3 sequence (looked up): T1 sequence (looked up) with S1177A, S1182A, S1209A

Measured: binding result

B1: His6-SUMO3-sororin (natural protein, human, UniProt Q96FF9 1-252, looked up)
chain: MSGRRTRSGGAAQRSGPRAPSPTKPLRRSQRKSGSELPSILPEIWPKTPSAAAVRKPIVLKRIVAHAVEVPAVQSPRRSPRISFFLEKENEPPGRELTKEDLFKTHSVPATPTSTPVPNPEAESSSKEGELDARDLEMSKKVRRSYSRLETLGSASTSTPGRRSCFGFEGLLGAEDLSGVSPVVCSKLTEVPRVCAKPWAPDMTLPGISPPPEKQKRKKKKMPEILKTELDEWAAAMNAEFEAAEQFDLLVE
notes: sororin; Stored as His6-SUMO3-sororin; no cleavage of the tags is told; also called recombinant sororin; source: E. coli Rosetta 2 DE3 (pET28-derivative), purified over Ni-NTA agarose, dialysed; not shown: His6, N-terminal, kept; SUMO3, N-terminal, kept
binds: all assays above
